{"source": "patent US20090226395A1", "about": "“Pharmaceutical compositions of beta-lapachone and beta-lapachone analogs with improved tumor targeting potential” (ArQule, Inc., priority 2004, published 2009)", "assay": "Tumor and plasma levels of free and total β-lapachone in HT29 tumor bearing Ncr NU/NU mice", "type": "in vivo", "conditions": "iv administration of the conjugate, FIGS. 3, 5A and B", "description": "Chromatographic analysis of plasma samples to determine plasma β-Lapachone levels is conducted employing a Zorbax SB C8 HPLC column (2.1×30 mm, 5μ particle size). The chromatographic system employs a CTC PAL Leap autoinjector (Leap Technologies, Carrboro, N.C.) with an Agilent (Agilent Technologies, Palo Alto, Calif.) 1100 HPLC system interfaced to a Micromass Quattro Ultima (Waters Corporation, Milford, Mass., USA) triple quadrapole mass spectrometer is employed to analyze samples. Chromatographic separations were conducted employing a gradient formed from mobile phase A (0.1% formic acid (FA) in water) and mobile phase B (0.1% FA in acetonitrile). The gradient program employed for the chromatographic separation is described in Table 3. The injection volume employed is 10 μL. The mass spectrometer is operated using ESI (electrospray ionization) positive in MRM (multiple reaction monitoring) mode. Mass transitions are monitored, respectively, for β-lapachone-D6 (Internal Standard, IS)=249>159, β-lapachone=243>159, and β-lapachone-ketal=317>243. Argon is used as the collision gas and Nitrogen is used as the desolvation gas. The collision cell gas pressure is 1.7×10^−3 mbar. The cone gas flow is 108 L/h and the desolvation gas flow is 537 L/h. The source temperature is set to 110° C. and the desolvation temperature is 400° C. […]", "data": [{"substance": "5-(acetyloxy)-2,2-dimethyl-3,4-dihydro-2H-benzo[h]chromen-6-yl glycinate γ-poly-L-glutamate [Sample B]", "values": [{"measurement": "persistence of therapeutic levels of β-lapachone in both tumors and plasma", "value": "about 24 hours"}]}]}
